Chains of the proteins cited; added tags and fusions are not shown. Residues count along the entry.
UniProt P37231, 238-503 limits assumed: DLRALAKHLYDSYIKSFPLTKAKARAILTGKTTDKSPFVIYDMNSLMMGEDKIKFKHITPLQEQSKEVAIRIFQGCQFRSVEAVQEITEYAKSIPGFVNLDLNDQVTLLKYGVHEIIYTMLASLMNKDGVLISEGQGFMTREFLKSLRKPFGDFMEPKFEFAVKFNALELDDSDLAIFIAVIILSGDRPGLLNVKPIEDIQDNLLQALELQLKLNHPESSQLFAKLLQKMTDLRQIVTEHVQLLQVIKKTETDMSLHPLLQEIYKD

In PMC3806773, “Discovery of P1736, a Novel Antidiabetic Compound That Improves Peripheral Insulin Sensitivity in Mice Models” (PLoS ONE, 2013):

Molecular target: human PPARγ receptor (Homo sapiens, UniProt P37231)
Assay: PPARγ transactivation luciferase reporter gene assay in HEK-293 cells
Settings: positive control

`CN(CCOc1ccc(CC2SC(=O)NC2=O)cc1)c1ccccn1` (stereo not shown) [Rosiglitazone, rosiglitazone maleate, reference compound] was tested, and the PPARγ transactivation was “marked activation”.

Counter-ions that a name gives are not always drawn.
